Measurements from PubChem BioAssay AID602332 (National Center for Advancing Translational Sciences (NCATS), 2012).
Where “and” joins values, the source holds several entries; their conditions need not be identical. Equal values may be shown once. The list shows a part of the results, in another mix than the full data. Calls of active or inactive are those of the source. The call rests on the fitted dose curve; in most records, active means well fitted activation curve with a large enough effect; inconclusive means small, poorly fitted or top-dose-only effect; inactive means no such curve, though single readings can be large or run the other way.

Assay: qHTS for Inducers of the Endoplasmic Reticulum Stress Response (ERSR) in Human Glioma: qHTS; further: % of control where 0% means no effect; nearly all actives have a fitted effect of over 35% in size
Details: U87-MG GRP78 promoter luciferase reporter, 16 h; hits give high values
For `CN(C(=O)Cc1ccccc1)[C@@H]1CC[C@]2(CCCO2)C[C@H]1N1CCCC1`, the activation was inactive: -1.81% and inactive: 1.77%.
For `CCOP1(=S)c2c(C)nn(CCC#N)c2N=C(c2ccc(F)cc2)N1C` (stereo not given), the activation was inactive: -0.778%.
For `N#CCCN(C(=O)COC(=O)C(O)(c1ccccc1)c1ccccc1)c1ccc(F)cc1`, the activation was inactive: -2.42%.
In the case of `CN(C(=O)Cc1ccc(Cl)c(Cl)c1)[C@H]1CC[C@@]2(CCCO2)C[C@@H]1N1CCCC1`, the activation is reported as inactive: -1.82%.
For `O=[N+]([O-])c1ccc2c(c1)nnn2O`, the activation was inactive: -2.51%.
For `CN(C)C(=O)c1cc([N+](=O)[O-])cc2c1-c1c(cc([N+](=O)[O-])cc1[N+](=O)[O-])C2=O`, the activation was inactive: -12.1%.
With `O=P(Nc1nccs1)(Oc1ccccc1)Oc1ccccc1` the activation was inactive: -2.33%.
In the case of `O=P(Nc1nccs1)(c1ccccc1)c1nc2ccccc2s1` (stereo not given), the activation is reported as inactive: -10.1%.
For `CCOP1(=S)c2c(C)nn(CCC#N)c2N=C(c2ccccc2F)N1C` (stereo not given), the activation was inactive: -4.25%.
With `CS(=O)(=O)c1cc([N+](=O)[O-])c2no[n+]([O-])c2c1` the activation was inactive: 3.72%.
With `Nc1ccccc1[As](=O)(O)c1ccccc1` the activation was inactive: -2.45%.
In the case of `O=C(O)COc1ccc([As](=O)(O)O)cc1[N+](=O)[O-]`, the activation is reported as inactive: -2.84%.
For `Nc1cccc2c([As](=O)(O)O)cccc12`, the activation was inactive: -8.41%.
For `Cc1ccc(NCCc2c([N+](=O)[O-])cc([N+](=O)[O-])cc2[N+](=O)[O-])cc1`, the activation was inactive: -1.36%.
For `CCCOP(=S)(Nc1nc(N)cc(=O)[nH]1)OCCC`, the activation was inactive: -2.38%.
For `CCOP(=O)(Nc1cccc2ccccc12)OCC`, the activation was inactive: -1.2%.
In the case of `COc1cc(C2NCCC3(OCCO3)C2(C)C)cc(OC)c1OC` (stereo not given), the activation is reported as inactive: -5.35%.
In the case of `CN(C(=O)Cc1ccc(Cl)c(Cl)c1)[C@@H]1CC[C@]2(CCCO2)C[C@H]1N1CCCC1`, the activation is reported as inactive: 1.9% and inactive: -3.57%.
For `O=C(OC1CN2CCC1CC2)c1ccc(Cl)cc1` (stereo not given), the activation was inactive: -1.79%.
In the case of `CS(=O)(=O)c1ccc(Cl)c(NC(=O)COC(=O)C(O)(c2ccccc2)c2ccccc2)c1`, the activation is reported as inactive: -4.84%.
For `O=[As](O)(O)c1cccnc1`, the activation was inactive: -1.89%.
With `COc1cc(C(=O)NCC2(N3CCOCC3)CCCCC2)cc(Cl)c1OC(C)C` the activation was inactive: -0.923%.
With `Cc1cccc(OCC(=O)OC2CN3CCC2CC3)c1` (stereo not given) the activation was inactive: -6.03%.
For `O=[As](O)(c1cccc(O)c1)c1cccc(O)c1`, the activation was inactive: -1.26%.
For `O=[N+]([O-])c1cc(Oc2ccc([N+](=O)[O-])cc2C(F)(F)F)cc([N+](=O)[O-])c1`, the activation was inactive: -3.55%.
